From US7632933B2, “Corticotropin releasing factor 2 receptor agonists” (priority 2002, dated 2009)

Columns and labels:
CRF2R = molecular target: T1, CRF2R (Homo sapiens, UniProt Q13324); assay: CRF2R agonist activity (EC50 and Emax), called comparative CRF binding; format: cell-based; details: CRF2R EC50 (nM), CRF2R
T1 sequence (Q13324 1-411): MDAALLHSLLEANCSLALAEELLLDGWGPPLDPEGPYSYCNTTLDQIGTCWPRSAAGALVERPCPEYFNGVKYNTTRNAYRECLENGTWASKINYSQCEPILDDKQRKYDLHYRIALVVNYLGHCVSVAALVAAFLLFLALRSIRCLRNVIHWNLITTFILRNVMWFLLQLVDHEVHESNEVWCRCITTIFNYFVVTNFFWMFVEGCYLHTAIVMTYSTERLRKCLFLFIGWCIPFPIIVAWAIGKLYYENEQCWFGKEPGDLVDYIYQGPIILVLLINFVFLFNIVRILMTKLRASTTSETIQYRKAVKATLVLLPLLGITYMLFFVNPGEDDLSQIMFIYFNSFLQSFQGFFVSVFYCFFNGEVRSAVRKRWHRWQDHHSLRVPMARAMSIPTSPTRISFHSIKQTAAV
From the text: (§1) The pharmacological activity and selectivity of the peptides of present invention can be determined using published test procedures. See, e.g, U.S. patent application Ser. No. 09/799,978. Because CRF2R and CRF1R are homologous proteins, it is expected that a certain proportion of agonists for CRF2R will also function as agonists of CRF1R. As discussed above, activation of CRF1R induces activation of the HPA axis since increased corticosteroid production leads to skeletal muscle atrophy. In most cases in which an increase in muscle mass or function is desired, it is not desirable to activate the HPA axis.
(§2) Because it is desirable to discriminate binding between CRF2R, as compared with CRF1R, the assays described above may be conducted using a cell, or membrane from a cell, which expresses only CRF2R or the assays can be conducted with a recombinant source of CRF2R. Cells expressing both forms of CRFR may be modified using homologous recombination to inactivate or otherwise disable the CRF1R gene. Alternatively, if the source of CRFR contains more than one CRFR type, the background signal produced by the receptor which is not of interest must be subtracted from the signal obtained in the assay. […] Known antagonists of CRFRs include, but are not limited to, antalarmin (CRF1R selective), antisauvagine-30 (CRF2R selective) and astressin (nonselective for CRF1R/CRF2R).
(§3) Cell-based assays include the steps of contacting cells which express CRF1R or CRF2R with a peptide of the present invention or control and measuring activation of the CRFR by measuring the expression or activity of components of the CRFR signal transduction pathways.
(§4) For example, after contact with a peptide of the present invention, lysates of the cells can be prepared and assayed for induction of cAMP. cAMP is induced in response to Gαs activation. Because Gαs is activated by receptors other than CRFR and because a test peptide may be exerting its effect through CRFRs or by another mechanism, two control comparisons are relevant for determining whether the peptide increases levels of cAMP via activation of a CRFR. One control compares the cAMP level of cells contacted with the peptide and the cAMP level of cells contacted with a control compound (i.e., the vehicle in which the peptide is dissolved).
(§5) In one example, cAMP induction is measured with the use of DNA constructs containing the cAMP responsive element linked to any of a variety of reporter genes can be introduced into cells expressing CRFRs. Such reporter genes include, but are not limited to, chloramphenicol acetyltransferase (CAT), luciferase, glucuronide synthetase, growth hormone, fluorescent proteins (e.g., Green Fluorescent Protein), or alkaline phosphatase. Following exposure of the cells to the peptide, the level of reporter gene expression can be quantitated to determine the peptide's ability to increase cAMP levels and thus determine the peptide's ability to activate the CRFR.
(§6) In addition to using cells expressing full length CRFRs, cells can be engineered which express CRFRs containing the ligand binding domain of the receptor coupled to, or physically modified to contain, reporter elements or to interact with signaling proteins. For example, a wild type CRFR or CRFR fragment can be fused to a G-protein resulting in activation of the fused G-protein upon agonist binding to the CRFR portion of the fusion protein. […] In addition, alternative pathways for induction of the CRE reporter could be eliminated to reduce basal levels.

CRF1R = molecular target: T2, CRF1R (Homo sapiens, UniProt P34998); assay: CRF1R agonist activity (EC50 and Emax), called comparative CRF binding; format: cell-based; details: CRF1R EC50 (nM), CRF1R
T2 sequence (P34998 24-415): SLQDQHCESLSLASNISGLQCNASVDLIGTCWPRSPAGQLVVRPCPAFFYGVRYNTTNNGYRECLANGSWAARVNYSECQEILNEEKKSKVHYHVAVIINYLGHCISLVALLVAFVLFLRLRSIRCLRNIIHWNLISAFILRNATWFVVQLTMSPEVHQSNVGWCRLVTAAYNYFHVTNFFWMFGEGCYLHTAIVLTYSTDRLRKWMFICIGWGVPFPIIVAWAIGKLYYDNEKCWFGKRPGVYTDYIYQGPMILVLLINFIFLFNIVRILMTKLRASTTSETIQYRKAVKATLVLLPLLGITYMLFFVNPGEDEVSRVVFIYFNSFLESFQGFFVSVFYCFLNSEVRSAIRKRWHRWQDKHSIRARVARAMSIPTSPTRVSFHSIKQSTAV
From the text: as §1, §2, §3, §4, §5, §6

Row | Structure (SMILES) | EC50 (CRF2R) [nM] | EC50 (CRF1R) [nM]
1 | CC[C@H](C)[C@H](NC(=O)[C@H](CCC(=O)O)NC(=O)[C@@H](NC(=O)[C@H](CCSC)NC(=O)[C@H](CCCCN)NC(=O)[C@H](CCCNC(=N)N)NC(=O)[C@H](CC(C)C)NC(=O)[C@H](CC(C)C)NC(=O)[C@H](Cc1c[nH]cn1)NC(=O)[C@H](CC(C)C)NC(=O)[C@@H]1CCCN1C(=O)[C@H](CC(C)C)NC(=O)[C@H](CC(=O)O)NC(=O)[C@@H](NC(=O)[C@H](CO)NC(=O)[C@@H](NC(=O)[C@@H]1CCCN1C(=O)[C@@H]1CCCN1C(=O)CNC(=O)[C@@H]1CCC(=O)N1)[C@@H](C)CC)[C@@H](C)CC)[C@@H](C)CC)C(=O)N[C@@H](CCC(=O)O)C(=O)N[C@@H](CCCCN)C(=O)N[C@@H](CCC(N)=O)C(=O)N[C@@H](CCC(=O)O)C(=O)N[C@@H](CCCCN)C(=O)N[C@@H](CCC(=O)O)C(=O)N[C@@H](CCCCN)C(=O)N[C@@H](CCC(N)=O)C(=O)N[C@@H](CCC(N)=O)C(=O)N[C@@H](C)C(=O)N[C@H](C(=O)N[C@H](C(=O)N[C@@H](CC(N)=O)C(=O)N[C@@H](C)C(=O)N[C@@H](CCCNC(=N)N)C(=O)N[C@@H](CC(C)C)C(=O)N[C@@H](CC(C)C)C(=O)N[C@@H](CC(=O)O)C(=O)N[C@@H](CCCNC(=N)N)C(=O)N[C@H](C(N)=O)C(C)C)[C@@H](C)O)[C@@H](C)O [compound 239] | 13.2 | 587
2 | CC[C@H](C)[C@H](NC(=O)[C@@H](NC(=O)[C@H](CC(=O)O)NC(=O)[C@H](CC(C)C)NC(=O)[C@H](CC(C)C)NC(=O)[C@H](CC(C)C)NC(=O)[C@H](CCCNC(=N)N)NC(=O)[C@H](CC(N)=O)NC(=O)[C@H](CC(N)=O)NC(=O)[C@H](C)NC(=O)[C@H](C)NC(=O)[C@H](CCC(N)=O)NC(=O)[C@H](CCC(N)=O)NC(=O)[C@H](CCCCN)NC(=O)[C@H](CCC(=O)O)NC(=O)[C@H](CCCCN)NC(=O)[C@H](CCC(=O)O)NC(=O)[C@H](CCC(N)=O)NC(=O)[C@H](CCCCN)NC(=O)[C@H](CCC(=O)O)NC(=O)[C@@H](NC(=O)[C@H](CCC(=O)O)NC(=O)[C@@H](NC(=O)[C@H](CCSC)NC(=O)[C@H](CCCCN)NC(=O)[C@H](CCCNC(=N)N)NC(=O)[C@H](CC(C)C)NC(=O)[C@H](CC(C)C)NC(=O)[C@@H]1CCCN1C(=O)[C@@H](NC(=O)[C@@H]1CCCN1C(=O)[C@H](CC(C)C)NC(=O)[C@H](CC(=O)O)NC(=O)[C@@H](NC(=O)[C@H](CO)NC(=O)[C@@H](NC(=O)[C@@H]1CCCN1C(=O)[C@@H]1CCCN1C(=O)CNC(=O)[C@@H]1CCC(=O)N1)[C@@H](C)CC)[C@@H](C)CC)[C@@H](C)O)[C@@H](C)CC)[C@@H](C)CC)[C@@H](C)O)C(N)=O [compound 52] | > 100 | > 1000
3 | CC[C@H](C)[C@H](NC(=O)[C@@H](NC(=O)[C@H](C)NC(=O)[C@H](CC(C)C)NC(=O)[C@H](CC(C)C)NC(=O)[C@H](CC(C)C)NC(=O)[C@H](C)NC(=O)[C@H](CC(N)=O)NC(=O)[C@H](CC(N)=O)NC(=O)[C@H](C)NC(=O)[C@H](C)NC(=O)[C@H](CCC(N)=O)NC(=O)[C@H](CCC(N)=O)NC(=O)[C@H](CCCCN)NC(=O)[C@H](CCC(=O)O)NC(=O)[C@H](CCCCN)NC(=O)[C@H](CCC(=O)O)NC(=O)[C@H](CCC(N)=O)NC(=O)[C@H](CCCCN)NC(=O)[C@H](CCC(=O)O)NC(=O)[C@@H](NC(=O)[C@H](CCC(=O)O)NC(=O)[C@@H](NC(=O)[C@@H](NC(=O)[C@H](CCCCN)NC(=O)[C@H](CCCNC(=N)N)NC(=O)[C@H](CC(C)C)NC(=O)[C@H](CC(C)C)NC(=O)[C@H](Cc1ccccc1)NC(=O)[C@@H](NC(=O)[C@@H]1CCCN1C(=O)[C@H](CC(C)C)NC(=O)[C@H](CC(=O)O)NC(=O)[C@@H](NC(=O)[C@H](CO)NC(=O)[C@@H](NC(=O)[C@@H]1CCCN1C(=O)[C@@H]1CCCN1C(=O)CNC(=O)[C@@H]1CCC(=O)N1)[C@@H](C)CC)[C@@H](C)CC)[C@@H](C)CC)C(C)C)[C@@H](C)CC)[C@@H](C)CC)[C@@H](C)O)C(N)=O [compound 280] | ≥ 100 | ≥ 1000
4 | CC[C@H](C)[C@H](NC(=O)[C@@H](NC(=O)[C@H](CC(=O)O)NC(=O)[C@H](CC(C)C)NC(=O)[C@H](CC(C)C)NC(=O)[C@H](CC(C)C)NC(=O)[C@H](CCCNC(=N)N)NC(=O)[C@H](CC(N)=O)NC(=O)[C@H](CC(N)=O)NC(=O)[C@H](C)NC(=O)[C@H](C)NC(=O)[C@H](CCC(N)=O)NC(=O)[C@H](CCC(N)=O)NC(=O)[C@H](CCCCN)NC(=O)[C@H](CCC(=O)O)NC(=O)[C@H](CCCCN)NC(=O)[C@H](CCC(=O)O)NC(=O)[C@H](CCC(N)=O)NC(=O)[C@H](CCCCN)NC(=O)[C@H](CCC(=O)O)NC(=O)[C@@H](NC(=O)[C@H](CCC(=O)O)NC(=O)[C@@H](NC(=O)[C@H](CCSC)NC(=O)[C@H](CCCCN)NC(=O)[C@H](CCCNC(=N)N)NC(=O)[C@H](CC(C)C)NC(=O)[C@H](CC(C)C)NC(=O)CNC(=O)[C@@H](NC(=O)[C@@H]1CCCN1C(=O)[C@H](CC(C)C)NC(=O)[C@H](CC(=O)O)NC(=O)[C@@H](NC(=O)[C@H](CO)NC(=O)[C@@H](NC(=O)[C@@H]1CCCN1C(=O)[C@@H]1CCCN1C(=O)CNC(=O)[C@@H]1CCC(=O)N1)[C@@H](C)CC)[C@@H](C)CC)[C@@H](C)CC)[C@@H](C)CC)[C@@H](C)CC)[C@@H](C)O)C(N)=O [compound 75] | > 100 | > 100
5 | CC[C@H](C)[C@H](NC(=O)[C@@H](NC(=O)[C@H](CC(=O)O)NC(=O)[C@H](CC(C)C)NC(=O)[C@H](CC(C)C)NC(=O)[C@H](CC(C)C)NC(=O)[C@H](CCCNC(=N)N)NC(=O)[C@H](CC(N)=O)NC(=O)[C@H](CC(N)=O)NC(=O)[C@H](C)NC(=O)[C@H](C)NC(=O)[C@H](CCC(N)=O)NC(=O)[C@H](CCC(N)=O)NC(=O)[C@H](CCCCN)NC(=O)[C@H](CCC(=O)O)NC(=O)[C@H](CCCCN)NC(=O)[C@H](CCC(=O)O)NC(=O)[C@H](CCC(N)=O)NC(=O)[C@H](CCCCN)NC(=O)[C@H](CCC(=O)O)NC(=O)[C@@H](NC(=O)[C@H](CCC(=O)O)NC(=O)[C@@H](NC(=O)[C@H](CCSC)NC(=O)[C@H](CCCCN)NC(=O)[C@H](CCCNC(=N)N)NC(=O)[C@H](CC(C)C)NC(=O)[C@H](CC(C)C)NC(=O)[C@H](CCC(N)=O)NC(=O)[C@H](CCC(N)=O)NC(=O)[C@@H]1CCCN1C(=O)[C@H](CC(C)C)NC(=O)[C@H](CC(=O)O)NC(=O)[C@@H](NC(=O)[C@H](CO)NC(=O)[C@@H](NC(=O)[C@@H]1CCCN1C(=O)[C@@H]1CCCN1C(=O)CNC(=O)[C@@H]1CCC(=O)N1)[C@@H](C)CC)[C@@H](C)CC)[C@@H](C)CC)[C@@H](C)CC)[C@@H](C)O)C(N)=O [compound 198] | 29.9 | 
